Reference: PubChem BioAssay AID492956 (The Scripps Research Institute Molecular Screening Center, 2010)
The entries are a selection whose mix differs from that of the whole data set. The source made the active and inactive calls.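 The calls were made as follows: active = inhibition above the mean over all tested compounds plus 3 SD (cut at about 30% in these data); inactive = the rest.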

biological target: Platelet-activating factor acetylhydrolase 2, cytoplasmic (Homo sapiens) (UniProt Q99487); experiment: PAFAH2 enzyme inhibitors, primary screen, biochemical, fluorescence polarization, human (AID 492956); conditions: recombinant PAFAH2, FP-rhodamine activity probe, at 3.39 µM, stronger effect = higher value;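 also: inhibitors block probe labeling of enzyme so polarization drops; 0% = enzyme with DMSO and 100% = wells lacking PAFAH2 protein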

SMILES | inhibition
CCC(=O)N(c1ccccc1)C1(COC)CCN(CCc2cccs2)CC1 | inactive: -6.85%
CCC(=O)N(c1ccccc1)C1(COC)CCN(CCn2nnn(CC)c2=O)CC1 | inactive: -1.81%
